Laboratory results from BindingDB's records for doi:10.1021/bi802035f (University of Florida, 2009).
pKi: −log10 of the molar value.

Target: Carbonic anhydrase 9 (Homo sapiens, UniProt Q16790)

NS(=O)(=O)c1nnc(-c2ccccc2Cl)s1 [5-(2-chlorophenyl)-1,3,4-thiadiazole-2-sulfonamide]
pKi: 9.00
